Experimental data from BindingDB's records for PubMed 3139864 (Vanderbilt University, 1988).

Target: T1, 5-hydroxytryptamine receptor 2C (Rattus norvegicus, UniProt P08909)
T1 sequence (P08909 whole entry): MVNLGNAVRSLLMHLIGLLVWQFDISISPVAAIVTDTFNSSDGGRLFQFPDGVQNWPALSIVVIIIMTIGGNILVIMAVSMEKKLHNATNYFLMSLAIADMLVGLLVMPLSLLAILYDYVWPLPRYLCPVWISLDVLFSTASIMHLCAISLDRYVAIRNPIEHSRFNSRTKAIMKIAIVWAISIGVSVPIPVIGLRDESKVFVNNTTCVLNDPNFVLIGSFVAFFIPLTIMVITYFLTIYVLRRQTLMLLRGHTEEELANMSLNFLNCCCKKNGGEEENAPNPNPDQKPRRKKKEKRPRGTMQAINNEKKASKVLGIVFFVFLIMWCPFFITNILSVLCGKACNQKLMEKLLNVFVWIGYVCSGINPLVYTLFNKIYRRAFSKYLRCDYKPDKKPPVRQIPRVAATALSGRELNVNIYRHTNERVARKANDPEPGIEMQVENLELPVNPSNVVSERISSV

| Compound | Ki [nM] |
| --- | --- |
| CN1C[C@@H](NS(=O)(=O)N(C)C)C[C@@H]2c3cccc4c3c(cn4C)C[C@H]21 [MESULERGINE] | 1 |
| Cc1nc2sccn2c(=O)c1CCN1CCC(=C(c2ccc(F)cc2)c2ccc(F)cc2)CC1 | 0.2 |
